Laboratory results: paper PMC3399817 (PLoS ONE, 2012)

Chains of the proteins cited; added tags and fusions are not shown.
UniProt P50750, whole entry: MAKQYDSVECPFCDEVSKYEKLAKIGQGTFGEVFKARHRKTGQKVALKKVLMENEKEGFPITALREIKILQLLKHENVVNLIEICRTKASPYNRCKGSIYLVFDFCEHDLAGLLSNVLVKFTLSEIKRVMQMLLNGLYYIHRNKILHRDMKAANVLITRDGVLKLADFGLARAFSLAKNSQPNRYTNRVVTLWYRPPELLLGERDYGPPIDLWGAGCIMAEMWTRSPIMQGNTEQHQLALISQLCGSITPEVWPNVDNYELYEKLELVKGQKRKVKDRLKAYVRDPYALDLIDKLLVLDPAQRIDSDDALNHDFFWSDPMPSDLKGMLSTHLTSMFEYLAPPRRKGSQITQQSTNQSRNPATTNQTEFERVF

Biological target: CDK9 (Homo sapiens, UniProt P50750)
Test: SelectScreen in vitro kinase IC50
Assay type: biochemical
Procedure: First, we used Ambit's KINOMEscan™ technology to identify those kinases that are inhibited for substrate binding by the compounds, all assayed at 1 μM. Second, we used Invitrogen's SelectScreen® Biochemical Kinase Profiling Service to determine the in vitro IC50s for the compounds against specific kinases.

## COc1ccc(-c2cc3nccn3c(Nc3ncccc3C(N)=O)n2)cc1OC.Cl.Cl [BAY61-3606, 2-[7-(3,4-dimethoxyphenyl)-imidazo [1,2-c]pyrimidin-5-ylamino] nicotinamide dihydrochloride, reference compound]
  IC50: 34.8 nM
